The results in this text go back to ChEMBL document CHEMBL5316269, “Rational Design of a New RXR Agonist Scaffold Enabling Single-Subtype Preference for RXRα, RXRβ, and RXRγ” (J Med Chem, 2023).

The structures appear in SMILES notation. Active and inactive are the calls of the source. The calls are words filed in the database; no cut-off is given here.

Experiment [1] addresses T1, Retinoic acid receptor RXR-alpha (Homo sapiens) (UniProt P19793).
T1 sequence (whole entry): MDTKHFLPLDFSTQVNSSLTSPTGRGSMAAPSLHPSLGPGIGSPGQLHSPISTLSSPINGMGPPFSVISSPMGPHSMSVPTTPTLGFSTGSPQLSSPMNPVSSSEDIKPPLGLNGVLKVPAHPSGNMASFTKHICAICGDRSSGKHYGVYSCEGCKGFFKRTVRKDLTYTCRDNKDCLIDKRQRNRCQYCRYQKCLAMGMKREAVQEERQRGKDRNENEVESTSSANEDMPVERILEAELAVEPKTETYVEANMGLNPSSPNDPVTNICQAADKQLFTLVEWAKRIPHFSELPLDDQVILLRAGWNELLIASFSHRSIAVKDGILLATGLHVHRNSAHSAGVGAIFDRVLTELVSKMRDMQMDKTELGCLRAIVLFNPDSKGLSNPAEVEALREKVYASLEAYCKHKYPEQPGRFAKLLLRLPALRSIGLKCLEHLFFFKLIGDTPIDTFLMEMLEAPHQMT
Description: Agonist activity at human RARalpha in human Adipose tissue derived mesenchymal stem cells assessed as increase in adipogenesis at 1 uM incubated for 13 days with media exchanged every 48-72 hrs in presence of pioglitazone by Oil-red O staining based analysis. The following applies: Adipose tissue derived mesenchymal stem cell, filed as agonist, time 13.0 day.

Experiment [2] deals with T2, Thyroid hormone receptor alpha (Homo sapiens) (UniProt P10827).
T2 sequence (whole entry): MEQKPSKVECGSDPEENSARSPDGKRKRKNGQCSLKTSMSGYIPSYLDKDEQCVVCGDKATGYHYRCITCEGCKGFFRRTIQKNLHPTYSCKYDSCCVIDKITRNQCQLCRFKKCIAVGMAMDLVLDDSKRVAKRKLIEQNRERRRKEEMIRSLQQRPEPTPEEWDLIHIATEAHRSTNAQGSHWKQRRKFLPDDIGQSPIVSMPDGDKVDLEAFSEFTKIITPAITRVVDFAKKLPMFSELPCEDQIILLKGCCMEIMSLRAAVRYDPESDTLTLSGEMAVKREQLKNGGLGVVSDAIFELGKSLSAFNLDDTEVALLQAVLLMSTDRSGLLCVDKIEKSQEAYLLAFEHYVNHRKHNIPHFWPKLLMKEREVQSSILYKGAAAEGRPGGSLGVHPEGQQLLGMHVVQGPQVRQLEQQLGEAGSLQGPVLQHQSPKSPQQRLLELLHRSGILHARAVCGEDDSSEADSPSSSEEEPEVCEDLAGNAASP
The experiment is described as follows: Agonist activity at human GAL4-fused THRalpha LBD expressed in human HEK293T cells cotransfected with pFR-Luc and pRL-SV40 assessed as increase in luciferase activity at 1 uM incubated for 16 hrs by Dual-Glo luciferase assay relative to control. In kind it is cell-based.

Take `Cc1cc(COc2ccc(C)c3c2CCC3)ccc1CCC(=O)O`: in experiment [1], the outcome was Active. For the same compound, the Activity in experiment [2] is 1%.
